Screen for blockers of NLRP3-driven cell death, PubChem AID 2061109 (Seoul National University).
Cells: mouse bone marrow macrophages; stimulus: LPS priming, then nigericin; dose: 5 µM; read-out: propidium iodide uptake by live imaging.
Inhibition in %: 0 = stimulated control, 100 = untreated cells; values below 0 were filed as 0. * marks the depositor's active call (above 70%). Part of the library is listed.

{"Structure (SMILES)": "C[C@@H](Oc1cc(C(=O)Nc2ccc(C(=O)N3CCN(C)CC3)cc2)nnc1N)c1c(Cl)ccc(F)c1Cl", "inhibition (%)": "0.0"}
{"Structure (SMILES)": "O=C(Cc1ccccc1)Oc1c(OC(=O)Cc2ccccc2)c(-c2ccc(O)cc2)c(O)c(O)c1-c1ccc(O)cc1", "inhibition (%)": "0.0"}
{"Structure (SMILES)": "CCCS(=O)(=O)Nc1ccc(F)c(C(=O)c2c[nH]c3ncc(Cl)cc23)c1F", "inhibition (%)": "0.0"}
{"Structure (SMILES)": "CCCCCCc1ccc(NC(=O)c2ccc([N+](=O)[O-])o2)cc1", "inhibition (%)": "0.0"}
{"Structure (SMILES)": "COc1cccc(CNc2ccc(S(=O)(=O)Nc3nccs3)cc2)c1O", "inhibition (%)": "0.0"}
{"Structure (SMILES)": "COc1ccc(S(=O)(=O)N(CCO)c2ccccc2CN(C)C/C=C/c2ccc(Cl)cc2)cc1.O=P(O)(O)O", "inhibition (%)": "0.0"}
{"Structure (SMILES)": "CN1CCc2cc(Nc3ncc(C4CC4)c(NCCCNC(=O)C4CCC4)n3)ccc2C1.Cl.Cl", "inhibition (%)": "0.0"}
{"Structure (SMILES)": "NC(=O)[C@H]1CCN(c2ncnc(N)c2F)C[C@@H]1N1CCC[C@@H](Nc2cc(Cl)cc(C(F)(F)F)c2)C1=O", "inhibition (%)": "0.0"}
{"Structure (SMILES)": "Cl.NC1CCN(c2nc3c(cc2F)c(=O)c(C(=O)O)cn3-c2ccc(F)cc2F)C1", "inhibition (%)": "0.0"}
{"Structure (SMILES)": "CNc1nc(Nc2cnc(C#N)c(O[C@@H]3CCCNC3)c2)ncc1-c1cnn(C)c1", "inhibition (%)": "0.0"}
{"Structure (SMILES)": "Cc1occc(=O)c1[O][Ga]([O]c1c(C)occc1=O)[O]c1c(C)occc1=O", "inhibition (%)": "0.0"}
{"Structure (SMILES)": "CC(C)(O)c1cncc(-c2nc3ccc(F)cc3n2C2CC2)c1", "inhibition (%)": "0.0"}
{"Structure (SMILES)": "Fc1ccc(Nc2nc(Nc3ccc(-c4nc5ccccc5[nH]4)cc3)nc(N3CCOCC3)n2)cc1", "inhibition (%)": "0.0"}
{"Structure (SMILES)": "CCOc1ccccc1C(=O)NCc1coc(-c2ccc(OC(F)F)c(OC(C)C)c2)n1", "inhibition (%)": "0.0"}
{"Structure (SMILES)": "CNCc1cc(-c2ccccc2F)n(S(=O)(=O)c2cccnc2)c1.O=C(O)/C=C/C(=O)O", "inhibition (%)": "0.0"}
{"Structure (SMILES)": "COc1ccccc1Oc1c(NS(=O)(=O)c2ccc(C)cn2)nc(-c2ccncc2)nc1OC", "inhibition (%)": "0.0"}
{"Structure (SMILES)": "COc1cc(C(=O)NC2C[C@H]3CCC[C@@H](C2)N3CC(=O)Nc2ccccc2Cl)cc(OC)c1OC", "inhibition (%)": "0.0"}
{"Structure (SMILES)": "CCCCCNC1=C(c2cn(C)c3ccccc23)C(=O)N(C)C1=O", "inhibition (%)": "0.0"}
{"Structure (SMILES)": "Cc1ccc(NC(=O)c2ccc(CN3CCNCC3)cc2)cc1Nc1nccc(-c2cccnc2)n1", "inhibition (%)": "0.0"}
{"Structure (SMILES)": "C[N+]1(CC2CC2)CC[C@]23c4c5ccc(O)c4O[C@H]2C(=O)CC[C@@]3(O)[C@H]1C5.[Br-]", "inhibition (%)": "0.0"}
{"Structure (SMILES)": "O=C1c2c(O)cc(O)cc2O[C@H](c2cc(O)c(O)c(O)c2)[C@H]1O", "inhibition (%)": "0.0"}
{"Structure (SMILES)": "Cc1nn(C)c2nc(NNC(=O)Nc3cc(Cl)nc(Cl)c3)cc(C(C)C)c12", "inhibition (%)": "0.0"}
{"Structure (SMILES)": "C[C@@H]1COCCN1c1cc(-c2ccnn2C)c2ccnc(-c3ccn[nH]3)c2n1", "inhibition (%)": "0.0"}
{"Structure (SMILES)": "C=C(C(=O)OCC)C(O)c1ccccc1Cl", "inhibition (%)": "0.0"}
{"Structure (SMILES)": "CC(C)(N)c1ccc(-c2nc3ccccc3nc2-c2ccccc2)cc1.Cl", "inhibition (%)": "0.0"}
{"Structure (SMILES)": "Br.N#Cc1ccc(-c2csc(NN=C3CCCC3)n2)cc1", "inhibition (%)": "0.0"}
{"Structure (SMILES)": "Cc1cccc(C2NC(=O)c3c(Cl)cccc3N2)c1", "inhibition (%)": "0.0"}
{"Structure (SMILES)": "CC1CNCCN1S(=O)(=O)c1cccc2cnccc12", "inhibition (%)": "0.0"}
{"Structure (SMILES)": "Cc1[nH]n(-c2nc3c(Cl)c(Cl)ccc3[nH]2)c(=O)c1C1OC(=O)c2ccccc21", "inhibition (%)": "0.0"}
{"Structure (SMILES)": "OCCCCOc1nsnc1-c1ccc(Cl)c(Cl)c1", "inhibition (%)": "0.0"}
{"Structure (SMILES)": "CN1CCC(CNc2cc(Cl)nn3c(-c4cc5nc(Nc6ccccc6)[nH]c5cc4F)cnc23)CC1", "inhibition (%)": "0.0"}
{"Structure (SMILES)": "C1=CCC2(CC1)COC(c1ccco1)OC2", "inhibition (%)": "0.0"}
{"Structure (SMILES)": "Fc1ccc(Cn2c(Cl)nc3ccccc32)cc1", "inhibition (%)": "0.0"}
{"Structure (SMILES)": "COc1cc2c(cc1OC)CN(CCc1ccc(-n3nnc(-c4cc(OC)c(OC)cc4NC(=O)c4cc(=O)c5ccccc5o4)n3)cc1)CC2.CS(=O)(=O)O", "inhibition (%)": "0.0"}
{"Structure (SMILES)": "Cl.O=C1c2cccc3c2[C@H](CCC3)CN1[C@@H]1CN2CCC1CC2", "inhibition (%)": "0.0"}
{"Structure (SMILES)": "CC(C)C1CCC(C(=O)N[C@H](Cc2ccccc2)C(=O)O)CC1", "inhibition (%)": "0.0"}
{"Structure (SMILES)": "CC1(C)Oc2cc(NS(C)(=O)=O)ccc2N(c2ccc(F)cc2)C1=O", "inhibition (%)": "0.0"}
{"Structure (SMILES)": "O=c1[nH]cc(F)c(=O)[nH]1", "inhibition (%)": "0.0"}
{"Structure (SMILES)": "O=C(O)[C@@H](Cc1ccccc1)Nc1cc(-c2ccc(OCc3ccccc3)cc2)ncn1", "inhibition (%)": "0.0"}
{"Structure (SMILES)": "CCc1nccn1CC(=O)c1ccc(O)c(O)c1.Cl", "inhibition (%)": "0.0"}
{"Structure (SMILES)": "COC(=O)C1=C(C)NC(C)=C(C(=O)OC)C1c1cccc(NC(=O)NCCCN2CCC(c3cccc(OC)c3)CC2)c1", "inhibition (%)": "0.0"}
{"Structure (SMILES)": "C[C@](O)(Cn1ccc2cc(F)ccc21)C(=O)Nc1ccc(C#N)c(C(F)(F)F)c1", "inhibition (%)": "0.0"}
{"Structure (SMILES)": "Nc1ccc(-c2cnc(N)c(-c3ccc(Cl)cc3)c2)cn1", "inhibition (%)": "0.0"}
{"Structure (SMILES)": "CNc1nnc(SCc2ccccc2)s1", "inhibition (%)": "0.0"}
{"Structure (SMILES)": "CC(C)=CCC/C(C)=C/CC/C(C)=C/CC/C(C)=C/CO", "inhibition (%)": "0.0"}
{"Structure (SMILES)": "Nc1nc2c(c(=O)[nH]1)C[C@@H](CCc1ccc(C(=O)N[C@@H](CCC(=O)O)C(=O)O)cc1)CN2", "inhibition (%)": "0.0"}
{"Structure (SMILES)": "CNc1nc(Nc2ccc(C(=O)N3CCOCC3)cc2OC)ncc1Cl", "inhibition (%)": "0.0"}
{"Structure (SMILES)": "CCN(CC)CCOC(=O)C1(C2CCCCC2)CCCCC1.Cl", "inhibition (%)": "0.0"}
{"Structure (SMILES)": "Cc1cc(C)nc(N2CC3CN(C(=O)c4c(F)cccc4-n4nccn4)CC3C2)n1", "inhibition (%)": "0.0"}
{"Structure (SMILES)": "COc1ccc(N2CCN(C(=S)Nc3ccc([N+](=O)[O-])cc3)CC2)c(N)c1", "inhibition (%)": "0.0"}
{"Structure (SMILES)": "Cc1nccn1CC1CCc2c(c3ccccc3n2C)C1=O.Cl", "inhibition (%)": "0.0"}
{"Structure (SMILES)": "CC(C)N1CCC(NC(=O)c2c(Cl)cccc2Cl)CC1", "inhibition (%)": "0.0"}
{"Structure (SMILES)": "CC(=O)N1CCC(NC(=O)NC23CC4CC(CC(C4)C2)C3)CC1", "inhibition (%)": "0.0"}
{"Structure (SMILES)": "CC(COc1ccccc1)NC(C)C(O)c1ccc(O)cc1.Cl", "inhibition (%)": "0.0"}
{"Structure (SMILES)": "CNCCN1CCC(c2ccc3[nH]c(-c4ccc(OC)c(OC)c4)c(C(C)C)c3c2)CC1", "inhibition (%)": "0.0"}
{"Structure (SMILES)": "CCOC(=O)[C@H](CCc1ccccc1)N[C@@H](C)C(=O)N1C(=O)N(C)C[C@H]1C(=O)O.Cl", "inhibition (%)": "0.0"}
{"Structure (SMILES)": "C=CC(=O)N1CCC[C@@H](n2nc(-c3ccc(Oc4ccccc4)cc3)c(C(N)=O)c2N)C1", "inhibition (%)": "0.0"}
{"Structure (SMILES)": "CC1=C(O)C(=O)C=C2C1=CC=C1[C@@]2(C)CC[C@@]2(C)[C@@H]3C[C@](C)(C(=O)O)CC[C@]3(C)CC[C@]12C", "inhibition (%)": "0.0"}
{"Structure (SMILES)": "COc1ccccc1[C@H](Cn1c(=O)n(C(C)(C)C(=O)O)c(=O)c2c(C)c(-c3ncco3)sc21)OC1CCOCC1", "inhibition (%)": "0.0"}
{"Structure (SMILES)": "CCS(=O)(=O)Nc1ccc2[nH]c(O)c(C(=Nc3ccc(CN4CCCCC4)cc3)c3ccccc3)c2c1", "inhibition (%)": "0.0"}
{"Structure (SMILES)": "O=C(O)c1ccc(C2(NC(=O)c3cccc4ccn(Cc5ccc(C(F)(F)F)cc5)c34)CC2)cc1", "inhibition (%)": "0.0"}
{"Structure (SMILES)": "CCOC(=O)/C(C#N)=C(\\N)c1ccccc1", "inhibition (%)": "0.0"}
{"Structure (SMILES)": "CCOC(=O)OC(C)OC1=C(C(=O)Nc2ccccn2)N(C)S(=O)(=O)c2ccccc21", "inhibition (%)": "0.0"}
{"Structure (SMILES)": "CC(=O)O.CC1CCN=C(N)C1", "inhibition (%)": "0.0"}
{"Structure (SMILES)": "Cc1cc(S(C)(=O)=O)c(S(C)(=O)=O)cc1C(=O)N=C(N)N", "inhibition (%)": "0.0"}
{"Structure (SMILES)": "CCc1c(C#N)c(SC(C(N)=O)c2ccccc2)nc(N2CCC(N)CC2)c1C#N", "inhibition (%)": "0.0"}

10 of the compounds above, restated:

Structure (SMILES),inhibition (%)
CC(C)=CCC/C(C)=C/CC/C(C)=C/CC/C(C)=C/CO,0.0
Nc1nc2c(c(=O)[nH]1)C[C@@H](CCc1ccc(C(=O)N[C@@H](CCC(=O)O)C(=O)O)cc1)CN2,0.0
CC(COc1ccccc1)NC(C)C(O)c1ccc(O)cc1.Cl,0.0
COc1ccccc1[C@H](Cn1c(=O)n(C(C)(C)C(=O)O)c(=O)c2c(C)c(-c3ncco3)sc21)OC1CCOCC1,0.0
CN1CCc2cc(Nc3ncc(C4CC4)c(NCCCNC(=O)C4CCC4)n3)ccc2C1.Cl.Cl,0.0
Cl.NC1CCN(c2nc3c(cc2F)c(=O)c(C(=O)O)cn3-c2ccc(F)cc2F)C1,0.0
Cc1occc(=O)c1[O][Ga]([O]c1c(C)occc1=O)[O]c1c(C)occc1=O,0.0
CCOC(=O)[C@H](CCc1ccccc1)N[C@@H](C)C(=O)N1C(=O)N(C)C[C@H]1C(=O)O.Cl,0.0
CC(=O)N1CCC(NC(=O)NC23CC4CC(CC(C4)C2)C3)CC1,0.0
COc1ccccc1Oc1c(NS(=O)(=O)c2ccc(C)cn2)nc(-c2ccncc2)nc1OC,0.0